Results on one protein are retold here after article PMC3673982 (PLoS ONE, 2013).

This data set concerns the molecule itself. Briefly: cross-linking; 35 µM protein in 50 mM phosphate pH 7.4, 150 mM NaCl, preincubated at 37°C for 30 min; BS2G d0/d4 at 20-fold molar excess (50- and 100-fold also tested), 1 h on ice, quenched with Tris; read by 4-20% SDS-PAGE with Coomassie stain.

B1: Human recombinant αA-WT crystallin (natural protein, UniProt P02489 1-173, looked up)
chain: MDVTIQHPWFKRTLGPFYPSRLFDQFFGEGLFEYDLLPFLSSTISPYYRQSLFRTVLDSGISEVRSDRDKFVIFLDVKHFSPEDLTVKVQDDFVEIHGKHNERQDDHGYISREFHRRYRLPSNVDQSALSCSLSADGMLTFCGPKIQTGLDATHAERAIPVSREEKPTSAPSS
notes: alpha-A-crystallin, human, wild type; Polydisperse oligomer with a variable number of subunits; also called wild-type αA-crystallin; source: E. coli BL21(DE3) pLysS, purified from the supernatant (gel filtration Superdex G-200, Q-Sepharose anion exchange)
As to B1, the binding result is given as “binds”.
